US8791115B2, “Combination of triazine derivatives and insulin sensitisers” (Poxel SAS, priority 2006, dated 2014)

System: diabetic GK rats
Test: Modulation of glucose levels (glycaemia and oral glucose tolerance test) in diabetic GK rats
Assay type: in vivo, rat
Conditions: triazine salt 100 mg/kg, rosiglitazone 5 mg/kg
Experimental: Biological Test: Modulation of Glucose Levels with the Combinations of the Invention with Insulin Sensitisers
The capacity of the compounds of the invention in combination with insulin-sensitising antidiabetic compounds to modify the blood glucose levels is evaluated in vivo in diabetic GK rats.
Alone or in combination, the antidiabetic agents are administered twice a day (bid) to the GK rats for 4 days. The oral glucose tolerance test (OGTT) is performed after the last day of treatment.
OGTT is performed in the morning after 3 hours of fasting by oral administration of a glucose charge of 2 g/kg of body mass. The blood samples are collected from the tail vein at 0; 10; 20; 30; 45; 60; 90 and 120 minutes to determine the glucose levels.
The two compounds were administered alone and in combination. The doses used for the hydrochloride salt of (+)-2-amino-3,6-dihydro-4-dimethylamino-6-methyl-1,3,5-triazine were 50 and 100 mg/kg PO twice daily for 4 days.

SMILES: CN(CCOc1ccc(CC2SC(=O)NC2=O)cc1)c1ccccn1 (centres unmarked) [Rosiglitazone, rosiglitazone, reference compound]
- % decrease in AUC vs control (OGTT after 4 days of treatment PO bid): −11.6%
- Glycaemia R under the curve (AUC) (OGTT, glucose 2 g/kg oral after 3 h fasting, 0-120 min, after 4 days of treatment PO bid): 2954 +/− 150
